# Data: BindingDB's records for PubMed 1646322 (Mayo Clinic, 1991)
# Chains of the proteins cited; added tags and fusions are not shown. Lines headed by an entry give the natural chain unless they say otherwise; changes in a name come on top.
# UniProt P08482: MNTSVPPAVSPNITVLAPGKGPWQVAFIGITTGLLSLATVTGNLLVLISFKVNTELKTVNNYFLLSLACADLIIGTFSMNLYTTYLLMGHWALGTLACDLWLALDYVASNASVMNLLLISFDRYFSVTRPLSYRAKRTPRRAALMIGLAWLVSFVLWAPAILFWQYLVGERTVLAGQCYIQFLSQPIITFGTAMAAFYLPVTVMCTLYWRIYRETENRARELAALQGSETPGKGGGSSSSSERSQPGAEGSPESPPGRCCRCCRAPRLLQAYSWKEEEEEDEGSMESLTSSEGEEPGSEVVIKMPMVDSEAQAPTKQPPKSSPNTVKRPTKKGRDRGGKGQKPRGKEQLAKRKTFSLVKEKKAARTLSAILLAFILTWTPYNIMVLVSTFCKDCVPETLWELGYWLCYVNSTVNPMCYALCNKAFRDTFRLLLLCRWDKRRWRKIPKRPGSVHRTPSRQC
# Target: Muscarinic acetylcholine receptor M1 (Rattus norvegicus, UniProt P08482)
smiles,measurement,value
COc1ccccc1CNCCCCCCNCCCCCCCCNCCCCCCNCc1ccccc1OC [METHOCTRAMINE],Ki,600 nM
